Antibody variant affinities, Ab-91 heavy chain, assay 2

Data: MIT Lincoln Laboratory AlphaSeq set, Engelhart et al. 2022, doi:10.1038/s41597-022-01779-4, as distributed in FLAb.

Target peptide (SARS-CoV-2 spike, HR2 region): PDVDLGDISGINAS

Each scFv is VL, a (GGGGS)3 linker, VH, as in the parent Ab-91, and differs from it in the CDRs of the heavy chain only.
VL: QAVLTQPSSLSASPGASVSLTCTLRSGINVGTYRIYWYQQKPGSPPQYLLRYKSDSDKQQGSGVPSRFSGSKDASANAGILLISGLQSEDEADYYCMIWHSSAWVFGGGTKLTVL
VH: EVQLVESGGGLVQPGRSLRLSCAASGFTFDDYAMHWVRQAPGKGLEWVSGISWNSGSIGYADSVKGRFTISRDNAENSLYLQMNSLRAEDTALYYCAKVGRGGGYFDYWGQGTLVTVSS

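Library AAYL51 holds single substitutions and randomly drawn double and triple substitutions in the CDRs. The scFvs were displayed on barcoded MATa yeast, the peptide on MATalpha yeast. After mating in shaken culture at 30 °C for 16 h, diploids were selected and their barcode pairs sequenced. Read counts were normalised to the haploid input and turned into Kd by a linear fit to BCL2-family pairs of known affinity, for each replicate. The assay was run in three technical replicates.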

Each variant is given by its three heavy chain CDRs, as the data file delimits them; those of the parent are GFTFDDYAMH, GISWNSGSIGYADSVK, VGRGGGYFDY.
Scale: log10 of Kd in nM, estimated from mating counts; low values are strong binders.
Replicates are averaged; those with no signal do not enter the mean.
A pair that was not seen in that replicate is written "n.d."; this usually means weak binding, but a binder can also be missed.

CDR-H1,CDR-H2,CDR-H3,log10 Kd (nM) by replicate,"log10 Kd (nM), mean",control signals
GFTFDDYRMK,GISWNSGSIGYADSVL,VGRGGGYFDY,n.d. 5.78 n.d.,5.78,2/9 (4.09)
GFTFDDYAIH,GWSWNSGSIGYAVSVK,VGRGGGYFDY,n.d. n.d. n.d.,n.d.,2/9 (3.10)
GFTFDDYAMH,GISWFSGSIGYADSVK,VGRGGGYSDY,4.60 4.49 4.36,4.49,7/9 (5.22)
GFTFDDYDMH,GISWNSGSIGYADSVK,GGMGGGYFDY,2.09 n.d. n.d.,2.09,0/9
GFTFDDYAMH,GIKWNHGSITYADSVK,VGRGGGYFDY,6.15 4.67 4.64,5.15,1/9 (4.86)
GFTFDDYWMH,GISWNRGSIGYADSVK,VGRGGGYFAY,n.d. n.d. n.d.,n.d.,1/9 (3.29)
TVTFDDQAMH,GISWNSGSIGYADSVK,VGRGGGYFDY,n.d. n.d. n.d.,n.d.,1/9 (4.42)
GFTFDDYAMH,GISMNSGSIVSADSVK,VGRGGGYFDY,n.d. 3.43 n.d.,3.43,0/9
NFTFDDYAMH,GISWNSGSIGSADSVK,VGRGGGYFDV,3.07 3.39 3.39,3.28,5/9 (4.73)
GFTFDDDAMH,GISWNSGSIGYADSVK,VGRGRGYFNY,n.d. n.d. 4.80,4.80,1/9 (4.77)
GFTFDDYAMH,GIFWNSVSIGYADSVK,VGRGLGYFDY,n.d. n.d. 4.54,4.54,4/9 (4.45)
GFTFDDYAMH,GISWNSGPIGYADWVK,VGRGGGYDDY,4.70 5.69 n.d.,5.20,8/9 (4.93)
GFTFDDYAMH,GISWNSGSIGYADSVK,VGRMGGYFVY,n.d. n.d. n.d.,n.d.,1/9 (2.58)
GGTFDDYAMH,HISWNSGSIGYADSVK,VGRGGGYGDY,n.d. n.d. n.d.,n.d.,0/9
GFTHDDYAMH,QISWNSGSIGYADSVL,VGRGGGYFDY,3.57 5.68 n.d.,4.62,3/9 (4.78)
GQTFDDYAMH,GIAWNSGSIGYMDSVK,VGRGGGYFDY,2.13 2.37 2.21,2.24,3/9 (4.31)
GFTFDDYAMH,GIAWNFSSIGYADSVK,VGRGGGYFDY,5.02 3.81 n.d.,4.41,1/9 (3.39)
GNTFDDYAMH,WISWNSGSIGYADSVK,VGRGGGYFDY,n.d. 5.73 n.d.,5.73,0/9
GFTFDDYAMH,GISWNDGSIGYATSVK,VGRGGGYFCY,5.16 n.d. n.d.,5.16,5/9 (4.46)
GFTFDDYAMH,GISWNSGSIGYADSVK,VGRGYGYFDW,n.d. n.d. n.d.,n.d.,0/9
NFTFDDYAMH,GISWNSFSIGYADSVK,VGRGGGYFDM,n.d. n.d. n.d.,n.d.,0/9
GFDFDNYAMH,GISWNSGSIGYADSVK,VGRKGGYFDY,3.10 3.37 3.65,3.38,2/9 (4.40)
GFTFDDYAMH,GISWNLDSIGYRDSVK,VGRGGGYFDY,n.d. n.d. n.d.,n.d.,0/9
GFTFDDYAMH,CISWNSGSIGYADSLK,VGRGGGYFDY,n.d. n.d. n.d.,n.d.,3/9 (4.18)
GFTFDDYAMH,GISWNSGSIGYADPVK,VGRQGGYLDY,3.56 n.d. n.d.,3.56,1/9 (4.11)
GMTGDDYAMH,GISWNSGSIGYADSVK,VGRGGGYFDY,4.37 n.d. n.d.,4.37,2/9 (3.80)
GFTFDEYAMH,GISWNSGSITYADSVK,VGRGGGYFGY,4.16 n.d. 3.75,3.95,4/9 (4.46)
GFTFDDYAMH,GISWNSGSIGYADSIK,VGRGGGYFDY,n.d. n.d. n.d.,n.d.,1/9 (4.67)
GFTTDDYAMH,GISWNSGSIGYADWVQ,VGRGGGYFDY,n.d. n.d. n.d.,n.d.,0/9
GVTFDDYAMH,GISWNTGSIGYADSVK,VCRGGGYFDY,n.d. 4.47 5.28,4.87,5/9 (4.47)
GFTFDDYAMH,IISWNSGSIGYADSVH,VGRGEGYFDY,n.d. n.d. n.d.,n.d.,1/9 (4.63)
GFTFDDYAMH,GICWNSGSIGYADSVK,VARGGGYFKY,n.d. n.d. n.d.,n.d.,1/9 (3.46)
GFTFDDYACH,FISWNEGSIGYADSVK,VGRGGGYFDY,n.d. n.d. n.d.,n.d.,0/9
SFTFDDYAVH,GISWNLGSIGYADSVK,VGRGGGYFDY,n.d. n.d. n.d.,n.d.,0/9
GFTFDDYAMH,GWSWNSGSIGYADSNK,VGGGGGYFDY,n.d. n.d. n.d.,n.d.,3/9 (4.91)
GTTFDDYAMH,GISWNSGSIGDADSVK,VGRGGGYFYY,n.d. 3.87 n.d.,3.87,0/9
GFTFDDYAMY,GIDSNSGSIGYADSVK,VGRGGGYFDY,n.d. n.d. n.d.,n.d.,2/9 (4.56)

The 5 strongest on average among those seen in every replicate, once more:

{"CDR-H1": "GQTFDDYAMH", "CDR-H2": "GIAWNSGSIGYMDSVK", "CDR-H3": "VGRGGGYFDY", "log10 Kd (nM) by replicate": "2.13 2.37 2.21", "log10 Kd (nM), mean": "2.24", "control signals": "3/9 (4.31)"}
{"CDR-H1": "NFTFDDYAMH", "CDR-H2": "GISWNSGSIGSADSVK", "CDR-H3": "VGRGGGYFDV", "log10 Kd (nM) by replicate": "3.07 3.39 3.39", "log10 Kd (nM), mean": "3.28", "control signals": "5/9 (4.73)"}
{"CDR-H1": "GFDFDNYAMH", "CDR-H2": "GISWNSGSIGYADSVK", "CDR-H3": "VGRKGGYFDY", "log10 Kd (nM) by replicate": "3.10 3.37 3.65", "log10 Kd (nM), mean": "3.38", "control signals": "2/9 (4.40)"}
{"CDR-H1": "GFTFDDYAMH", "CDR-H2": "GISWFSGSIGYADSVK", "CDR-H3": "VGRGGGYSDY", "log10 Kd (nM) by replicate": "4.60 4.49 4.36", "log10 Kd (nM), mean": "4.49", "control signals": "7/9 (5.22)"}
{"CDR-H1": "GFTFDDYAMH", "CDR-H2": "GIKWNHGSITYADSVK", "CDR-H3": "VGRGGGYFDY", "log10 Kd (nM) by replicate": "6.15 4.67 4.64", "log10 Kd (nM), mean": "5.15", "control signals": "1/9 (4.86)"}

Parent in this assay: reference entry 1.86, copy in this library 0.88.
As a blank, each scFv also met three strains without target: over library AAYL51, 21% of these pairings were detected, typically at 4.54 and seldom below 3.26. Also given: how often the same scFv was detected with the empty control strains, with their mean in brackets.